Measured values: ChEMBL document CHEMBL4680190, “Imidazo[2,1-b] [1,3,4]thiadiazoles with antiproliferative activity against primary and gemcitabine-resistant pancreatic cancer cells” (Eur J Med Chem, 2020)

Protein sequences, listed by entry. Tags and fused reporters are not part of them.
UniProt Q05397, whole entry, looked up: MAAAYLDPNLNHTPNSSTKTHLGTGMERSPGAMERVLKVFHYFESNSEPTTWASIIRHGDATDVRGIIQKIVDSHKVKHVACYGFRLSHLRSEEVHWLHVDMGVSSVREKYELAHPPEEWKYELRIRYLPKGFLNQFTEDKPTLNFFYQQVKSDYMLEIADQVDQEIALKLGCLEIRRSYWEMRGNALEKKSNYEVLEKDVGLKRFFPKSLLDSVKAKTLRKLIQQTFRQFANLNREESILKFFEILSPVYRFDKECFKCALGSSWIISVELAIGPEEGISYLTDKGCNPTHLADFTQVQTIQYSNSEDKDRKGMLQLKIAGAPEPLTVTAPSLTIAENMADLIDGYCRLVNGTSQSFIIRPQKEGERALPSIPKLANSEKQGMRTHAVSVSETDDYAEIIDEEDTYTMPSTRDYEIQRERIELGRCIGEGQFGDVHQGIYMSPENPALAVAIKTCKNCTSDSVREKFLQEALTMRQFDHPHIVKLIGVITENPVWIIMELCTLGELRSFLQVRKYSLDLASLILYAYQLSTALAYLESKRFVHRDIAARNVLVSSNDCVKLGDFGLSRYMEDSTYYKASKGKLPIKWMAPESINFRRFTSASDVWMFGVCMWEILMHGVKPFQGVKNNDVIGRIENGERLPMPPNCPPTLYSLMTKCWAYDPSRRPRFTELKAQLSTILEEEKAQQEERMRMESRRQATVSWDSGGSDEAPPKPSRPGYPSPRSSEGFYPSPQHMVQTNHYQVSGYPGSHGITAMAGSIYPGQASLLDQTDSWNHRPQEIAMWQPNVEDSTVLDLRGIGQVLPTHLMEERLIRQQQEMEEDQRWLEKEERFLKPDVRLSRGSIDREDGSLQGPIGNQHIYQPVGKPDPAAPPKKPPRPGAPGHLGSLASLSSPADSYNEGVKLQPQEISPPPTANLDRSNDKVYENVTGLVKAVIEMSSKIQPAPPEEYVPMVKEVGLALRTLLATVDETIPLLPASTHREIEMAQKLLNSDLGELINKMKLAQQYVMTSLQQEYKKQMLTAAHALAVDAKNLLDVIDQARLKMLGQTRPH

Legend:
Format in all cases: cell-based
[1] = biological target: Focal adhesion kinase 1 (Homo sapiens) (UniProt Q05397); assay: Inhibition of PTK2 in human Panc-1 cells assessed as fold inhibition of PTK2 phosphorylation at Y397 residue at 5XIC50 incubated for 24 hrs by ELISA relative to control
[2] = biological target: Focal adhesion kinase 1 (Homo sapiens) (UniProt Q05397); assay: Inhibition of PTK2 in human CAPAN-1 cells assessed as fold inhibition of PTK2 phosphorylation at Y397 residue at 5XIC50 incubated for 24 hrs by ELISA relative to control
[3] = biological target: Focal adhesion kinase 1 (Homo sapiens) (UniProt Q05397); assay: Inhibition of PTK2 in human SUIT-2 cells assessed as inhibition of PTK2 phosphorylation at Y397 residue at 5XIC50 incubated for 24 hrs by ELISA relative to control
[4] = biological target: Focal adhesion kinase 1 (Homo sapiens) (UniProt Q05397); assay: Inhibition of PTK2 in human SUIT-2 cells at 5XIC50 incubated for 24 hrs by PamChip analysis relative to control

fold change (FC) [1] | fold change (FC) [2] | fold change (FC) [3] | fold change (FC) [4] | Structure (SMILES)
0.4 | 0.4 | 0.4 | > 2 | Cn1cc(-c2nn3cc(-c4ccsc4)nc3s2)c2ccccc21
0.4 | 0.4 | 0.4 | – | c1ccc2c(-c3nn4cc(-c5ccsc5)nc4s3)c[nH]c2c1
